# According to paper PMC11472320, “Computationally Driven Discovery of a BCR-ABL1 Kinase Inhibitor with Activity in Multidrug-Resistant Chronic Myeloid Leukemia” (Journal of Medicinal Chemistry, 2024):
# Chains of the proteins cited; added tags and fusions are not shown. Lines headed by an entry give the natural chain unless they say otherwise; changes in a name come on top.
# UniProt Q96GD4, whole entry: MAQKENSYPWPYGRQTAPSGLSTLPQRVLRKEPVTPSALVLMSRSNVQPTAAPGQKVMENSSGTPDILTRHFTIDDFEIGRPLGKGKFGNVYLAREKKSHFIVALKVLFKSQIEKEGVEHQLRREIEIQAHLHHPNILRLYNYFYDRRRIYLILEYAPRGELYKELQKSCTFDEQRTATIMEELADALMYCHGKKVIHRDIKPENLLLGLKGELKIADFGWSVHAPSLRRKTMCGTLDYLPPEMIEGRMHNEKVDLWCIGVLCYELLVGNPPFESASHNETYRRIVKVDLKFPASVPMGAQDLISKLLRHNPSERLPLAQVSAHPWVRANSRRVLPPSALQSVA
# UniProt Q8N5S9: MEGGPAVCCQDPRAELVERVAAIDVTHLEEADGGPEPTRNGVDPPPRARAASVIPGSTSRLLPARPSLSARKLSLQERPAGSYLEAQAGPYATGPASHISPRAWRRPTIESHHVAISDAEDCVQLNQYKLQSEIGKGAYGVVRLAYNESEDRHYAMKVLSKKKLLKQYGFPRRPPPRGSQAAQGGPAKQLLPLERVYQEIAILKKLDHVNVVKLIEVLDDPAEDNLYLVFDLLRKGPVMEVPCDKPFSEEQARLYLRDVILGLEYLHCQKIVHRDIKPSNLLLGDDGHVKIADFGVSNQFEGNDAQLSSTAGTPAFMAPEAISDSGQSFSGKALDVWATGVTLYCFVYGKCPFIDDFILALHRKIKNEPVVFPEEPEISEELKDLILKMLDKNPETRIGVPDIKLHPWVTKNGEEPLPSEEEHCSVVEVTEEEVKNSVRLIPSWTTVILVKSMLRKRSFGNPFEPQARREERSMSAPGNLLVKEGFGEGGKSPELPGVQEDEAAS
# UniProt Q8N752: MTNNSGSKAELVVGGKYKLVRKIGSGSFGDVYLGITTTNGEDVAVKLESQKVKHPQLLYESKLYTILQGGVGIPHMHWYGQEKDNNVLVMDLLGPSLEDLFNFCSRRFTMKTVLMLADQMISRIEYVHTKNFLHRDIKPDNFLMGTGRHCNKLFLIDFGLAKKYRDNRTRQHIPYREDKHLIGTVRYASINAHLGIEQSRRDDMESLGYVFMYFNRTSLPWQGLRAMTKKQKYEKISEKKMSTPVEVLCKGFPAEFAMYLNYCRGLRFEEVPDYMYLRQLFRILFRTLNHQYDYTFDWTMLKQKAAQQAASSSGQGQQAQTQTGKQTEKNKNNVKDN
# UniProt Q9Y463, whole entry: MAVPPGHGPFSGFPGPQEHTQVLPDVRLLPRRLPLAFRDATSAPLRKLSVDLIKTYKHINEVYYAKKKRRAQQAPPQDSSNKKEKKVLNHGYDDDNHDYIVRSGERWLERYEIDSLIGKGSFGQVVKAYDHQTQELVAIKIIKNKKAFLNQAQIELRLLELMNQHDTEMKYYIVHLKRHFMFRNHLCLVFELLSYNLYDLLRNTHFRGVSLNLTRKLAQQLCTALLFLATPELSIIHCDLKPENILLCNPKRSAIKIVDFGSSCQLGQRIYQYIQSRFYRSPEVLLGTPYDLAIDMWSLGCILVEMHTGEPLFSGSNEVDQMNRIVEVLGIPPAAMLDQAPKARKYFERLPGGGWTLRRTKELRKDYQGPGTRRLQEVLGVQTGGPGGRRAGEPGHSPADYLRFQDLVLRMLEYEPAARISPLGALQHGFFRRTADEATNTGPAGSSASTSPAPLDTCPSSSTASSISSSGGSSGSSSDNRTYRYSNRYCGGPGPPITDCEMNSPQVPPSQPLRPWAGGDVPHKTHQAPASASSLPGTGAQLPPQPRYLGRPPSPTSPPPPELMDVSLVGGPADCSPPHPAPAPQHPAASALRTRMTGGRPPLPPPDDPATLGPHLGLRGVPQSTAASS
# UniProt Q9Y4K4: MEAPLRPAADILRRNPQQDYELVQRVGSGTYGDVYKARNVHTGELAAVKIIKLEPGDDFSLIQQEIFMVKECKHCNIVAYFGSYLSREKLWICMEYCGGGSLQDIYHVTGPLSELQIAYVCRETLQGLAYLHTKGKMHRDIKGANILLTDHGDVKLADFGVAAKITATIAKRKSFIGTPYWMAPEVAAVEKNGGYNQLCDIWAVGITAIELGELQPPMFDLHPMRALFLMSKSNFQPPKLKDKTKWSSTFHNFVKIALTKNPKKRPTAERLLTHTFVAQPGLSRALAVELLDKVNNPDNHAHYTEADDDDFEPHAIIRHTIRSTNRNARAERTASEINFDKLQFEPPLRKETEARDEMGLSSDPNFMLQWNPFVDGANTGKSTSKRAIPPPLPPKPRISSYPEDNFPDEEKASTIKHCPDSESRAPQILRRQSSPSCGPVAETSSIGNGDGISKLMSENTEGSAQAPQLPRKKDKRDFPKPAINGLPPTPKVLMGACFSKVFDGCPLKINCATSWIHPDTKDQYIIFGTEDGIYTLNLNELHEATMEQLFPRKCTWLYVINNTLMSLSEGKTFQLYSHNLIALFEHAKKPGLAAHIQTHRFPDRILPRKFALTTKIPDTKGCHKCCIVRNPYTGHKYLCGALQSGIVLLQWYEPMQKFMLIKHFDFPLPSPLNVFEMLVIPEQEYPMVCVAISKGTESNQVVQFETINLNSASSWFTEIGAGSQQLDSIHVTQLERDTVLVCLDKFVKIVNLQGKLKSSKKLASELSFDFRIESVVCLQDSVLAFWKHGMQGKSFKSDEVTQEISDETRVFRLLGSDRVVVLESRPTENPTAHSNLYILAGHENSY
# UniProt Q00537: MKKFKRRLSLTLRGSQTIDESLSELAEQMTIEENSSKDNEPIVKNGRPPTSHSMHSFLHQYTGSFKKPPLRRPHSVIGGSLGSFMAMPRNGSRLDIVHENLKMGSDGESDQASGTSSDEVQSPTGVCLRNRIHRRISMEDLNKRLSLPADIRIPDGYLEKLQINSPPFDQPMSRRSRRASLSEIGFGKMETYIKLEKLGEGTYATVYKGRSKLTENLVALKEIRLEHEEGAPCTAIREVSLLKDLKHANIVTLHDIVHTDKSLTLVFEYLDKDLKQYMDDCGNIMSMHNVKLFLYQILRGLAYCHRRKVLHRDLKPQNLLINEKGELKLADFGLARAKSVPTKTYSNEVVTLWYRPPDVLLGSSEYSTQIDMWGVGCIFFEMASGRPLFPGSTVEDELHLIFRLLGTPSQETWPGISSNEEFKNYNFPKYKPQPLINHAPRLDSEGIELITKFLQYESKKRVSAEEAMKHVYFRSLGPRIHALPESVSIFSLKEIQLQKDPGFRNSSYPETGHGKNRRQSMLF
# UniProt P78356: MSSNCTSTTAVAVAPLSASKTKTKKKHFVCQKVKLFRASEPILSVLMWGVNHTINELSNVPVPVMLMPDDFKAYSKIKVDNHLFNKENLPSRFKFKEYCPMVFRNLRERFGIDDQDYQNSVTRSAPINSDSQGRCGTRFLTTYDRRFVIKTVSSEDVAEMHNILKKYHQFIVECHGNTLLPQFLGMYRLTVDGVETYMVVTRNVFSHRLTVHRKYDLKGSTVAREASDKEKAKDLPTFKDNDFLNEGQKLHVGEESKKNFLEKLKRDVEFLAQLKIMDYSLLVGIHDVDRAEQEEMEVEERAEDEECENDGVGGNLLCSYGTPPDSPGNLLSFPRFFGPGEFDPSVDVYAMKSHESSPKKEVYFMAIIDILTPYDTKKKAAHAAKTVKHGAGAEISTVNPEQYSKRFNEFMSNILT
# UniProt P53350, whole entry: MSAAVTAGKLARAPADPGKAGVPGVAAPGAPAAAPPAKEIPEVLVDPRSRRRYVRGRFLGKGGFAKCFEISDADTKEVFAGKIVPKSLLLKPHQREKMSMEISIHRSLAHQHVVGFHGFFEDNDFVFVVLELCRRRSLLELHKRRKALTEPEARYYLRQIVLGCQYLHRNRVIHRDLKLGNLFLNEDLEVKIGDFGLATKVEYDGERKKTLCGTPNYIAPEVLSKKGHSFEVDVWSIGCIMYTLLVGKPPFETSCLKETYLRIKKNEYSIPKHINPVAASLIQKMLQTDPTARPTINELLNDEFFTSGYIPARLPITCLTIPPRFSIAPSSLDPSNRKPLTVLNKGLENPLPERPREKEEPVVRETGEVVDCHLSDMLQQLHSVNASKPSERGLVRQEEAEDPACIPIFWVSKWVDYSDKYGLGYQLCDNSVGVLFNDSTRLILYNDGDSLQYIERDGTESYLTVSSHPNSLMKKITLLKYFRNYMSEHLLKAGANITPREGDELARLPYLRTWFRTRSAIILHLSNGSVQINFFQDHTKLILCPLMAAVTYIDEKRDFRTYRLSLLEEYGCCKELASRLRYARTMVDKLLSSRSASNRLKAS
# UniProt Q9Y2K2: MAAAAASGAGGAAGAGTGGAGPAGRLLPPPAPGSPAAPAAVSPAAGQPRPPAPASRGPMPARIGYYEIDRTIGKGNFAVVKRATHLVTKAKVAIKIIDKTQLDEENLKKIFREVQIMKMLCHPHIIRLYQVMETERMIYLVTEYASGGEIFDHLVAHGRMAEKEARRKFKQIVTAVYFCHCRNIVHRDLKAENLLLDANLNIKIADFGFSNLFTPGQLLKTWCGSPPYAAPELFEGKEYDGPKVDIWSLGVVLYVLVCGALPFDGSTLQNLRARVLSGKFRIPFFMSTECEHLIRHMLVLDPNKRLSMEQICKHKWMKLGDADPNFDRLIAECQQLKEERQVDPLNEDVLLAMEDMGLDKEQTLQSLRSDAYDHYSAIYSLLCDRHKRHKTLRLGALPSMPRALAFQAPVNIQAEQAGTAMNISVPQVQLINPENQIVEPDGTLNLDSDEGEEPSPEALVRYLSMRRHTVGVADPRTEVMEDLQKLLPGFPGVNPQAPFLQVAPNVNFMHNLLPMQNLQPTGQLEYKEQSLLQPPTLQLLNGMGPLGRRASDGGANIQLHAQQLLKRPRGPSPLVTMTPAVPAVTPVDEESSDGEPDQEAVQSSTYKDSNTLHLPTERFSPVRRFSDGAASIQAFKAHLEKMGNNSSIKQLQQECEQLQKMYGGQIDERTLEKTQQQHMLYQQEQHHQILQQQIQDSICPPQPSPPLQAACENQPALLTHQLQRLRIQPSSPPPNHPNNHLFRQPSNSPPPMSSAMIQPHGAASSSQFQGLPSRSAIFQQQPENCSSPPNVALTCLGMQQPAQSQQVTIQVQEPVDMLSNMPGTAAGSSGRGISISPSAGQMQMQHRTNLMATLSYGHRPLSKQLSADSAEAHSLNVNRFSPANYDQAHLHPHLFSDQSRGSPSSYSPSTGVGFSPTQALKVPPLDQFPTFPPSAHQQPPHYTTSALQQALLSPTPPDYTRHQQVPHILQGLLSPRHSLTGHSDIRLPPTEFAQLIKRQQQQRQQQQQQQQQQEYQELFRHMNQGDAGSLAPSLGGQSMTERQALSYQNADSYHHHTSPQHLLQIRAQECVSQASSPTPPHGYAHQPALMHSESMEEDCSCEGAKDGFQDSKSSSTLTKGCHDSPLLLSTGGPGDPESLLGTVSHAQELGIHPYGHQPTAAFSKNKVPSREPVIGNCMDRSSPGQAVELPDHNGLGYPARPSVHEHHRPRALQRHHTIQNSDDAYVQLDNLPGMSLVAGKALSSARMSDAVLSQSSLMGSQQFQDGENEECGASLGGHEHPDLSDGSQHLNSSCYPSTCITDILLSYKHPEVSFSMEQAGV
# UniProt O00141: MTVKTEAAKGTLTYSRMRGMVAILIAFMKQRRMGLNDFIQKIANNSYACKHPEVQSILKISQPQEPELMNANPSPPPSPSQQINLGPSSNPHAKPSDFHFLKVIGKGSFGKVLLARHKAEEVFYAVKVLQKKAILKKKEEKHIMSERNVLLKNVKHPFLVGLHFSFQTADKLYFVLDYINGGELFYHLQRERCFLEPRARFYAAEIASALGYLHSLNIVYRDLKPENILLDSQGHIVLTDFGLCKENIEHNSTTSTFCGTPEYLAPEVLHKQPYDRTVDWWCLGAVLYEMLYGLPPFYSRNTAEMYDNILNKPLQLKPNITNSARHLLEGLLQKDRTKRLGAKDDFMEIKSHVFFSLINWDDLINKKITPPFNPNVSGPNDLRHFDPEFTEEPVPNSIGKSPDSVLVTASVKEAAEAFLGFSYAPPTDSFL
# UniProt Q8WU08: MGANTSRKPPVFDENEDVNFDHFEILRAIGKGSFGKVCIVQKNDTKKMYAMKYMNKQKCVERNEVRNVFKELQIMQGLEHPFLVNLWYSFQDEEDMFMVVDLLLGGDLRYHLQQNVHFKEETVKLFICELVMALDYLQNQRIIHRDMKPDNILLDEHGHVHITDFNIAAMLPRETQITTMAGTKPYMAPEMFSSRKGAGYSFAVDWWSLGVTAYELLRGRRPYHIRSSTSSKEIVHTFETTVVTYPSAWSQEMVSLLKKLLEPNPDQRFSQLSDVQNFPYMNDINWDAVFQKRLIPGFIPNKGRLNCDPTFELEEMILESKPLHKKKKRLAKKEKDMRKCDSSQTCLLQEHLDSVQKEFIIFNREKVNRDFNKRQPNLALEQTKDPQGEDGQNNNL
# Legend:
# Test in all cases: biochemical
# Details in all cases: read-out: Percent Control
# [1] = target: ALK(C1156Y) (Homo sapiens, UniProt Q9UM73, C1156Y)
# [2] = target: AMPK-alpha1 (Homo sapiens, UniProt Q13131)
# [3] = target: AURKB (Homo sapiens, UniProt Q96GD4)
# [4] = target: AXL (Homo sapiens, UniProt P30530)
# [5] = target: BRAF (Homo sapiens, UniProt P15056)
# [6] = target: CAMK2D (Homo sapiens, UniProt Q13557)
# [7] = target: CAMKK1 (Homo sapiens, UniProt Q8N5S9)
# [8] = target: CDK8 (Homo sapiens, UniProt P49336)
# [9] = target: CLK1 (Homo sapiens, UniProt P49759)
# [10] = target: CLK3 (Homo sapiens, UniProt P49761)
# [11] = target: CSK (Homo sapiens, UniProt P41240)
# [12] = target: CSNK1A1L (Homo sapiens, UniProt Q8N752)
# [13] = target: DAPK2 (Homo sapiens, UniProt Q9UIK4)
# [14] = target: DCAMKL1 (Homo sapiens, UniProt O15075)
# [15] = target: DYRK1B (Homo sapiens, UniProt Q9Y463)
# [16] = target: EGFR(L747-S752del, P753S) (Homo sapiens, UniProt P00533, DEL747-752/P753S)
# [17] = target: EPHA7 (Homo sapiens, UniProt Q15375)
# [18] = target: EPHB1 (Homo sapiens, UniProt P54762)
# [19] = target: FLT1 (Homo sapiens, UniProt P17948)
# [20] = target: FLT3(R834Q) (Homo sapiens, UniProt P36888, R834Q)
# [21] = target: FYN (Homo sapiens, UniProt P06241)
# [22] = target: GRK7 (Homo sapiens, UniProt Q8WTQ7)
# [23] = target: IGF1R (Homo sapiens, UniProt P08069)
# [24] = target: MAP3K3 (Homo sapiens, UniProt Q99759)
# [25] = target: MAP4K5 (Homo sapiens, UniProt Q9Y4K4)
# [26] = target: MKK7 (Homo sapiens, UniProt O14733)
# [27] = target: MYLK (Homo sapiens, UniProt Q15746)
# [28] = target: PCTK2 (Homo sapiens, UniProt Q00537)
# [29] = target: PFTAIRE2 (Homo sapiens, UniProt Q96Q40)
# [30] = target: PIK3C2G (Homo sapiens, UniProt O75747)
# [31] = target: PIK3CA(Q546K) (Homo sapiens, UniProt P42336, Q546K)
# [32] = target: PIP5K2B (Homo sapiens, UniProt P78356)
# [33] = target: PKMYT1 (Homo sapiens, UniProt Q99640)
# [34] = target: PKN2 (Homo sapiens, UniProt Q16513)
# [35] = target: PLK1 (Homo sapiens, UniProt P53350)
# [36] = target: QSK (Homo sapiens, UniProt Q9Y2K2)
# [37] = target: SGK (Homo sapiens, UniProt O00141)
# [38] = target: SRMS (Homo sapiens, UniProt Q9H3Y6)
# [39] = target: SRPK2 (Homo sapiens, UniProt P78362)
# [40] = target: STK35 (Homo sapiens, UniProt Q8TDR2)
# [41] = target: TXK (Homo sapiens, UniProt P42681)
# [42] = target: WNK2 (Homo sapiens, UniProt Q9Y3S1)
# [43] = target: YANK1 (Homo sapiens, UniProt Q8WU08)
smiles,measurement,setting,value
"COc1cc2c(Nc3ccc(Cl)c(OC)n3)c(C#N)cnc2cc1OCCON1CCN(C)CC1 [16a, 4-((5-Chloro-6-methoxypyridin-2-yl)amino)-6-methoxy-7-(2-((4-methylpiperazin-1-yl)oxy)ethoxy)quinoline-3-carbonitrile]",remaining activity at 1 µM,[1],31%
same,remaining activity at 1 µM,[2],31%
same,remaining activity at 1 µM,[3],100%
same,remaining activity at 1 µM,[4],7.4%
same,remaining activity at 1 µM,[5],100%
same,remaining activity at 1 µM,[6],47%
same,remaining activity at 1 µM,[7],47%
same,remaining activity at 1 µM,[8],91%
same,remaining activity at 1 µM,[9],24%
same,remaining activity at 1 µM,[10],36%
same,remaining activity at 1 µM,[11],0.8%
same,remaining activity at 1 µM,[12],4%
same,remaining activity at 1 µM,[13],74%
same,remaining activity at 1 µM,[14],70%
same,remaining activity at 1 µM,[15],42%
same,remaining activity at 1 µM,[16],0.5%
same,remaining activity at 1 µM,[17],96%
same,remaining activity at 1 µM,[18],13%
same,remaining activity at 1 µM,[19],61%
same,remaining activity at 1 µM,[20],35%
same,remaining activity at 1 µM,[21],11%
same,remaining activity at 1 µM,[22],61%
same,remaining activity at 1 µM,[23],96%
same,remaining activity at 1 µM,[24],0.1%
same,remaining activity at 1 µM,[25],0.4%
same,remaining activity at 1 µM,[26],100%
same,remaining activity at 1 µM,[27],35%
same,remaining activity at 1 µM,[28],100%
same,remaining activity at 1 µM,[29],65%
same,remaining activity at 1 µM,[30],76%
same,remaining activity at 1 µM,[31],100%
same,remaining activity at 1 µM,[32],10%
same,remaining activity at 1 µM,[33],18%
same,remaining activity at 1 µM,[34],48%
same,remaining activity at 1 µM,[35],100%
same,remaining activity at 1 µM,[36],5.5%
same,remaining activity at 1 µM,[37],100%
same,remaining activity at 1 µM,[38],11%
same,remaining activity at 1 µM,[39],100%
same,remaining activity at 1 µM,[40],0.65%
same,remaining activity at 1 µM,[41],2.3%
same,remaining activity at 1 µM,[42],64%
same,remaining activity at 1 µM,[43],100%
